The values that follow come from ChEMBL document CHEMBL1125696, “Synthesis and structure-activity relationships of deltorphin analogues” (J Med Chem, 1991).

Amino acid sequences for entries named in this document (tags omitted).
UniProt P32300, whole entry: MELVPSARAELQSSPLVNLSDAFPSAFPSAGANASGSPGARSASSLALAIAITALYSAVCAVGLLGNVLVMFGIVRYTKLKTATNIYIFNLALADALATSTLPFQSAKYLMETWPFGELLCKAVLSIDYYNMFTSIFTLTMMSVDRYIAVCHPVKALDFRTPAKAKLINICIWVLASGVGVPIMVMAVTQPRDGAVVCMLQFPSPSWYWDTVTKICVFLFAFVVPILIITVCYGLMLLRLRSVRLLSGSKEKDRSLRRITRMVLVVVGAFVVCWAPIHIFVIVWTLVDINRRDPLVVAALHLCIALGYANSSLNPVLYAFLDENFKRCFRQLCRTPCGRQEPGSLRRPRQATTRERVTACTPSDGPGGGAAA
UniProt P33535, whole entry: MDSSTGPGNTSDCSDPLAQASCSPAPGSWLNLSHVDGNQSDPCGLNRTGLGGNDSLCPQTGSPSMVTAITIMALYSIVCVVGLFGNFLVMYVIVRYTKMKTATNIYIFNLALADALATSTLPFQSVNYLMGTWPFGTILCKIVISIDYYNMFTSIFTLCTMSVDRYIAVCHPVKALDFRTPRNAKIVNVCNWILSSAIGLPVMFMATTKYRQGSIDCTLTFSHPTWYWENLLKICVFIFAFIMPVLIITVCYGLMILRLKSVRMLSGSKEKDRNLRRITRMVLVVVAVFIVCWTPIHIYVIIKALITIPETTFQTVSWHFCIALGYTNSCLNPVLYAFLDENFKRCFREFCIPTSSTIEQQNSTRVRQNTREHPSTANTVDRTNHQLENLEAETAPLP

Test [1] has as its target Delta-type opioid receptor (Mus musculus, UniProt P32300). The experiment in a line: In vitro opioid receptor delta mediated mouse vas deferens (MVD) assay. It is filed as tissue-based.
The target of another test is Mu-type opioid receptor (Rattus norvegicus, UniProt P33535). The experiment in a line: Displacement of [3H]- DAGO from opioid receptor mu in rat brain membrane. It is filed as cell membranes.

Take `CC(C)[C@H](NC(=O)[C@H](CC(=O)O)NC(=O)[C@H](Cc1ccccc1)NC(=O)[C@H](C)NC(=O)[C@@H](N)Cc1ccc(O)cc1)C(=O)N[C@H](C(=O)NCC(N)=O)C(C)C`: the IC50 in test [1] turned out to be 0.14 nM.
Consider `CC(C)[C@H](NC(=O)[C@H](CCC(=O)O)NC(=O)[C@H](Cc1ccccc1)NC(=O)[C@H](C)NC(=O)[C@@H](N)Cc1ccc(O)cc1)C(=O)N[C@H](C(=O)NCC(N)=O)C(C)C`, for which the IC50 was determined as 0.75 nM in test [1] and 3200 nM on Mu-type opioid receptor.

As a reminder, the IC50 is the point on the concentration scale where inhibition reaches its midpoint.
